Values joined by “and” are separate entries in the source; they are usually repeats but may differ in a detail not shown here. Equal entries are not always repeated. Where two headings read alike, the source gives them in different places.
Biological target: T1, human Y5 receptor (Homo sapiens, UniProt Q15761)
T1 sequence (Q15761 1-445): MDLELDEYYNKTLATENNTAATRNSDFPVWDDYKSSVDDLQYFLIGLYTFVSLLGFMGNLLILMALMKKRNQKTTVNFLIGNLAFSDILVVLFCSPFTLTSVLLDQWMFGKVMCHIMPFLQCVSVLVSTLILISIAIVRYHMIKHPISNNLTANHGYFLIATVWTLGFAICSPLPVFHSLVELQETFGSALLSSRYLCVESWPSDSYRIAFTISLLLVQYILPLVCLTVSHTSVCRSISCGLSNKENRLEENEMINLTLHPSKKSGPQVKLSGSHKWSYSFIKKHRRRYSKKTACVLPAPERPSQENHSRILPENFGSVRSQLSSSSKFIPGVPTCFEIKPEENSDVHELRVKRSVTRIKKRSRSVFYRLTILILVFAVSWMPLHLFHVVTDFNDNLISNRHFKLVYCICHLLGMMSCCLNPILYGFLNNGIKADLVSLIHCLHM
Assay: Radioligand binding to membranes of cells expressing cloned human Y5 receptor
Set-up: Ki Values, Human Y5; apparent Kd; pKd; The isolated clone (CG-19) turned out to contain a full length cDNA; The longest open reading frame encodes a 455 amino acid protein
Conditions: saturation binding; for Kd: read-out: apparent Kd

pKd (COS-7 transient human Y5, n=4): 9.76±0.11
Kd (COS-7 transient human Y5): 0.1 nM and 0.18 nM
pKd (LM(tk-) clone #7): 9.32±0.07
Kd (LM(tk-) clone #7 stable human Y5): 0.47 nM
Kd (NIH-3T3 clone #8 stable human Y5): 0.3 nM
Substance: ^125I-PYY
